# Assay outcomes: PubChem, National Center for Advancing Translational Sciences (NCATS)
# Nrf2 ARE act – activates Nrf2 signaling. Potency, µM (top dose mostly 46.1 µM), without a hit: top-dose activation, hits mostly activators. 410,000 tested, 0.31% active. AID 624171. AREc32 ARE-luciferase reporter (MCF7-derived line), luminescence, 24 h; further: potency means the concentration at half of the fitted maximal effect; % of control where 0% means no effect; nearly all actives have a fitted effect of over 65% in size
#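 ARE-driven firefly luciferase activity in AREc32 cells measured after a 24 hr compound exposure at 37 deg C, using Steady-Glo reagent and a 30 min room-temperature hold.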
# PI4K2A inh – inhibitors of human PI4K2A; Q9BTU6; purified PI4K2A, ADP-Glo luminescence, 1 h; stronger effect = lower value; activity change, negative = inhibition, % at 76.9 µM; 420,000 tested, 0.13% active; AID 1346378; in the data active means activity change below about -50%; inconclusive means mostly about -30% to -49%;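 further: -100% = wells without enzyme as full effect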
#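 ADP-Glo luminescence measured ADP generated by PI4K2A enzyme (4 ug/mL before mixing) with 1.2 mM PI substrate (pre-mix) and 300 microM ATP (pre-mix). Tris pH7.5 buffer with MgCl2, Triton X-100; 1 h reaction at ambient temperature.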
# miR-21 reporter – miR-21 reporter, rising signal; HeLa miR-21 FLuc reporter, luciferase, 48 h; Potency, µM (titrated, usually from 38.3 µM), without a hit: top-dose reporter change, positive = more light; AID 2288; 340,000 tested, under 10 active; active = well fitted rising curve with a large enough effect; inconclusive = small, poorly fitted or top-dose-only effect; inactive = no such curve, though single readings can be large or run the other way;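 further: % of control where 0% means no effect; miR-21 action dims this reporter so a rising signal means less miR-21 action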
#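 Luminescence from a firefly luciferase reporter carrying a miR-21 binding site downstream, stably expressed under a CMV promoter in HeLa cells that make miR-21 endogenously, reports miRNA modulation after 48 h compound exposure up to approximately 40uM final.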
# A549 tox – A549 cytotoxicity, counter-screen for Nrf2 inhibitors. A549 ARE-Fluc cells, CellTiter-Fluor viability, 18-24 h. AID 504648. 390,000 tested, 0.16% active. Potency, µM (doses to about 46 µM), inactives show at the top dose activity change, negative = cytotoxicity, most hits filed as inhibitors; further: potency means the concentration at half of the fitted maximal effect; on the % scale 0 is the no-effect control and ±100 the full control effect
#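 A549 ARE_Fluc cells in 5% FBS OPTI-MEM were exposed to compounds in concentration-response for 18-24 h at 37 deg C. Viability was read by CellTiter-Fluor fluorescence (Ex 405/Em 525) after 30 min, before the luciferase read.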
# Nrf2 block – Nrf2 pathway inhibition; 360,000 tested, 2.1% active; A549 ARE-Fluc reporter, luciferase luminescence, 18-24 h; AID 504444; Potency, µM (doses to about 46 µM), inactives show at the highest dose activity change, negative = inhibition, actives largely listed as inhibitors; further: potency means the concentration at half of the fitted maximal effect; on the % scale 0 is the no-effect control and ±100 the full control effect; nearly all actives have a fitted effect of over 60% in size
#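 Nrf2 activity is the BugLite luminescence, read 15 min after reagent at room temperature, following CellTiter-Fluor cytotoxicity readout (30 min, 37C). Compound titrations were applied for 18-24 h to 5000 A549 ARE_Fluc cells/well in 5% FBS OPTI-MEM.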
# GALK inhibitor – inhibitors of human galactokinase; Purified GALK, Kinase-Glo residual ATP luminescence; Potency, µM (series often up to 57.5 µM), inactives show top-dose activity change, negative = inhibition, most hits filed as inhibitors; 270,000 tested, 0.007% active; P51570; further: potency means the concentration at half of the fitted maximal effect; on the % scale 0 is the no-effect control and ±100 the full control effect
#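 Human GALK (5 nM) with 35 uM ATP and 100 uM galactose in 20 mM HEPES pH 8.0, 5 mM MgCl2, 60 mM NaCl, 1 mM DTT, 0.01% BSA. After 1 h at room temperature, leftover ATP was read by Kinase-Glo Plus luminescence.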
# * marks the source's active call; other numbers are inactive results; ? = inconclusive; · = no result. Hits are enriched below; roughly 2.2% of the tested compounds scored in any of these assays. Unless noted, the call rests on the fitted dose curve; in most records, active means well fitted curve in the direction sought with a large enough effect; inconclusive means small, poorly fitted or top-dose-only effect, or another doubt; inactive means no such curve, though single readings can be large; an effect the other way counts as inactive or inconclusive.
SMILES,Nrf2 ARE act,PI4K2A inh,miR-21 reporter,A549 tox,Nrf2 block,GALK inhibitor
O=C1CCC[C@H]2C[C@H](NCc3ccc(Cl)cc3)CC[C@]23CCCN13,·,0,·,·,·,·
N#CN1CCC(N[S+](=O)([O-])c2cccc(F)c2)CC1,·,·,·,1%,12%,·
Cc1cccc(-n2ncc3c2CCCC3NC(=O)CCc2cccnc2)c1C (stereo unspecified),-1%,-4,10%,-4%,7.3µM*,6%
Cc1cccc(-n2ncc3c2CCCC3NC(=O)Cc2c(C)noc2C)c1C (stereo unspecified),-1%,2,12%,-9%,8.2µM*,2%
CC1(c2nnnn2-c2ccc3ccccc3c2)CSCC(=O)N1C1CC1 (stereo unspecified),·,0,·,·,·,·
C#CCSc1nc(-c2ccccc2)cc(C(F)(F)F)c1C#N,8.9µM*,1,-2%,2%,-16%,-1%
N#Cc1c(C(F)(F)F)cc(-c2cccs2)nc1SCc1cccnc1,8%,-4,1%,?,13µM*,2%
COc1ccc(-c2cc(C(F)(F)F)c(C#N)c(SCC(=O)O)n2)cc1,3%,-16,-1%,-11%,-7%,12%
Cc1ccc(-c2cc(C(F)(F)F)c(C#N)c(SCCC#N)n2)o1,7.1µM*,-3,-2%,-2%,7%,-1%
O=c1oc2ccccc2c(Nc2ccc(F)cc2)c1[N+](=O)[O-],28%,2,3%,-13%,-25%,6%
O=c1oc2ccccc2c(Nc2ccc(Cl)cc2)c1[N+](=O)[O-],14%,-2,20%,-4%,16µM*,·
CCOc1cc(C=C(C(=O)OC)C(=O)OC)ccc1OCc1ccc([N+](=O)[O-])cc1,-3%,-7,?,?,18µM*,-3%
CCCOc1nc2c(c(=O)n(C)c(=O)n2C)n1Cc1cccc2ccccc12,0%,0,-1%,-11%,18µM*,1%
CCCNC(=O)COC(=O)c1ccccc1C(=O)c1ccc(Cl)c([N+](=O)[O-])c1,?,7,?,1%,-19%,3%
Cc1ccc(Cl)c(NC(=O)COC(=O)c2ccccc2C(=O)c2ccc(Cl)c([N+](=O)[O-])c2)c1Cl,0%,6,18%,?,23µM*,1%
Cc1ccc(C)c(N2CCN(C(=O)CCCOc3cc(=O)n(C)c4ccccc34)CC2)c1,0%,-2,29%,?,23µM*,-1%
COc1cccc(CNC2CCC23CCC(C)CC3)c1 (stereo unspecified),·,2,·,·,·,·
O=C(Cc1cccs1)N1CCN(c2nc(-c3ccc(Cl)cc3)cs2)CC1,4%,-2,14%,-29%,18µM*,1%
CCNC(=S)N1CCN(c2nc(-c3ccc(F)cc3)cs2)CC1,1%,-2,6%,3%,18µM*,-2%
COCCNC(=S)N1CCN(c2nc(-c3ccc(F)cc3)cs2)CC1,3%,1,5%,-2%,-28%,-5%

# A run of entries from further up, as a working copy:
SMILES,Nrf2 ARE act,PI4K2A inh,miR-21 reporter,A549 tox,Nrf2 block,GALK inhibitor
Cc1ccc(C)c(N2CCN(C(=O)CCCOc3cc(=O)n(C)c4ccccc34)CC2)c1,0%,-2,29%,?,23µM*,-1%
COc1cccc(CNC2CCC23CCC(C)CC3)c1 (stereo unspecified),·,2,·,·,·,·
O=C(Cc1cccs1)N1CCN(c2nc(-c3ccc(Cl)cc3)cs2)CC1,4%,-2,14%,-29%,18µM*,1%
CCNC(=S)N1CCN(c2nc(-c3ccc(F)cc3)cs2)CC1,1%,-2,6%,3%,18µM*,-2%
COCCNC(=S)N1CCN(c2nc(-c3ccc(F)cc3)cs2)CC1,3%,1,5%,-2%,-28%,-5%

# Next part
SMILES,Nrf2 ARE act,PI4K2A inh,miR-21 reporter,A549 tox,Nrf2 block,GALK inhibitor
CNC(=S)N1CCN(c2nc(-c3cccc(OC)c3)cs2)CC1,6%,-4,0%,-4%,18µM*,-1%
COc1cccc(-c2csc(N3CCN(C(=S)Nc4ccc(Cl)cc4)CC3)n2)c1,5%,-2,0%,-25%,21µM*,4%
CCOC(=O)[C@]12CCCC=C1N(Cc1ccc(OC)cc1)C(=O)[C@@H]2CC(=O)NCCC(C)C,·,3,·,·,·,·
NC(=O)C1CCN(c2nc(-c3ccc4c(c3)CCO4)cs2)CC1,·,-1,·,·,·,·
CCOC(=O)[C@]12CCCC3=C1N(CCC3)C(=O)[C@@H](CC(=O)N1CCCC1)C2,·,-6,·,·,·,·
C[C@H]1[C@@H](OC(=O)Nc2cc(Cl)ccc2Cl)CC[C@@]23CCCN2C(=O)CCC[C@@H]13,·,-5,·,·,·,·
S=C(NCC1CCCO1)N1CCN(c2nc(-c3ccccc3)cs2)CC1 (stereo unspecified),0%,-13,20%,-11%,13µM*,11%
